CycPeptMPDB entries from one study

Values of doi:10.1021/acs.jcim.9b00217, as listed in CycPeptMPDB.

PAMPA measures passive passage through an artificial lipid membrane.
P is given in units of 10^-6 cm/s (from log10 values with two decimals); larger means faster passage.

PAMPA (10^-6 cm/s)	SMILES
7.8	CC(C)C[C@@H]1NC(=O)[C@H](CC(C)C)NC(=O)[C@@H](CC(C)C)NC(=O)[C@H]2CCCN2C(=O)[C@H](Cc2ccc(O)cc2)NC(=O)[C@@H](CC(C)C)NC1=O
4.9	CC(C)C[C@@H]1NC(=O)[C@@H](CC(C)C)NC(=O)[C@H]2CCCN2C(=O)[C@H](Cc2ccc(O)cc2)NC(=O)[C@@H](CC(C)C)NC(=O)[C@@H](CC(C)C)NC1=O
7.2	CC(C)C[C@@H]1NC(=O)[C@@H](CC(C)C)NC(=O)[C@@H](CC(C)C)NC(=O)[C@H]2CCCN2C(=O)[C@H](Cc2ccc(O)cc2)NC(=O)[C@@H](CC(C)C)NC1=O
2.3	CC(C)C[C@@H]1NC(=O)[C@@H](CC(C)C)NC(=O)[C@@H](CC(C)C)NC(=O)[C@@H](CC(C)C)NC(=O)[C@H]2CCCN2C(=O)[C@H](Cc2ccc(O)cc2)NC1=O
2.9	CC(C)C[C@H]1NC(=O)[C@H]2CCCN2C(=O)[C@H](Cc2ccc(O)cc2)NC(=O)[C@@H](CC(C)C)NC(=O)[C@@H](CC(C)C)NC(=O)[C@@H](CC(C)C)NC1=O
1.7	CC(C)C[C@@H]1NC(=O)[C@H](CC(C)C)NC(=O)[C@@H](CC(C)C)NC(=O)[C@@H](CC(C)C)NC(=O)[C@H]2CCCN2C(=O)[C@H](Cc2ccc(O)cc2)NC1=O
2.6	CC(C)C[C@@H]1NC(=O)[C@H](CC(C)C)NC(=O)[C@@H](CC(C)C)NC(=O)[C@H]2CCCN2C(=O)[C@H](Cc2ccc(O)cc2)NC(=O)[C@H](CC(C)C)NC1=O
1.7	CC(C)C[C@@H]1NC(=O)[C@@H](CC(C)C)NC(=O)[C@H](CC(C)C)NC(=O)[C@@H](CC(C)C)NC(=O)[C@H]2CCCN2C(=O)[C@H](Cc2ccc(O)cc2)NC1=O

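The data file gives no further conditions (lipid, pH, time, direction or concentration), and values from different papers need not be comparable. The list need not hold all peptides of the study. Entries at the database's floor value (log10 P of -10) are not listed.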